The assay has as its system JAK1-dependent STAT6 phosphorylation downstream of IL-13 stimulation in BEAS-2B cells.
Consider `CN1CCN(C(=O)Cn2cc(Nc3nc4c(N5C[C@H]6CC[C@@H](C5)[C@H]6OCc5ccccc5)cccn4n3)cn2)CC1` [Example 1, 2-[4-[[8-[(1S,5R)-8-benzyloxy-3-azabicyclo[3.2.1]octan-3-yl]-[1,2,4]triazolo[1,5-a]pyridin-2-yl]amino]pyrazol-1-yl]-1-(4-methylpiperazin-1-yl)ethanone], for which the IC50 (usually the point on the concentration scale where inhibition reaches its midpoint) was found to be 11.7 nM.
With `CN1CCN(C(=O)Cn2cc(Nc3nc4c(N5CC6CCC(C5)N6C(=O)N5CC(C(F)(F)F)C5)cccn4n3)cn2)CC1` [Example 2, 1-(4-methylpiperazin-1-yl)-2-[4-[[8-[8-[3-(trifluoromethyl)azetidine-1-carbonyl]-3,8-diazabicyclo[3.2.1]octan-3-yl]-[1,2,4]triazolo[1,5-a]pyridin-2-yl]amino]pyrazol-1-yl]ethanone] the figure was 48.5 nM; with `CN1CCN(C(=O)Cn2cc(Nc3nc4c(N5CC6CCC(C5)N6C(=O)C5CSC5)cccn4n3)cn2)CC1` [Example 3, 1-(4-methylpiperazin-1-yl)-2-[4-[[8-[8-(thietane-3-carbonyl)-3,8-diazabicyclo[3.2.1]octan-3-yl]-[1,2,4]triazolo[1,5-a]pyridin-2-yl]amino]pyrazol-1-yl]ethanone], 36.8 nM.
The figure for `CN1CCN(C(=O)Cn2cc(Nc3nc4c(N5CC6CCCC(C5)N6C(=O)CCC(F)(F)F)cccn4n3)cn2)CC1` [Example 4, 4,4,4-trifluoro-1-[3-[2-[[1-[2-(4-methylpiperazin-1-yl)-2-oxo-ethyl]pyrazol-4-yl]amino]-[1,2,4]triazolo[1,5-a]pyridin-8-yl]-3,9-diazabicyclo[3.3.1]nonan-9-yl]butan-1-one] is 13.2 nM; for `CN1CCN(C(=O)Cn2cc(Nc3nc4c(N5CC6CCC(C5)N6C(=O)CCC(F)(F)F)cccn4n3)cn2)CC1` [Example 5, 4,4,4-trifluoro-1-[3-[2-[[1-[2-(4-methylpiperazin-1-yl)-2-oxo-ethyl]pyrazol-4-yl]amino]-[1,2,4]triazolo[1,5-a]pyridin-8-yl]-3,8-diazabicyclo[3.2.1]octan-8-yl]butan-1-one] it is 27 nM.
`CN1CCN(C(=O)Cn2cc(Nc3nc4c(N5CC6CCC(C5)N6C(=O)CC5CC(F)(F)C5)cccn4n3)cn2)CC1` [Example 8, 2-(3,3-difluorocyclobutyl)-1-[3-[2-[[1-[2-(4-methylpiperazin-1-yl)-2-oxo-ethyl]pyrazol-4-yl]amino]-[1,2,4]triazolo[1,5-a]pyridin-8-yl]-3,8-diazabicyclo[3.2.1]octan-8-yl]ethanone] registered an IC50 of 36.6 nM.
Consider `CN1CCN(C(=O)Cn2cc(Nc3nc4c(N5CC6CCC(C5)N6C(=O)CC5CSCCS5)cccn4n3)cn2)CC1` (stereo not drawn) [Example 9, 2-(1,4-dithian-2-yl)-1-[3-[2-[[1-[2-(4-methylpiperazin-1-yl)-2-oxo-ethyl]pyrazol-4-yl]amino]-[1,2,4]triazolo[1,5-a]pyridin-8-yl]-3,8-diazabicyclo[3.2.1]octan-8-yl]ethanone], for which the IC50 turned out to be 59.2 nM. Compared with the last compound, the IC50 is about 1.6-fold higher.
The figure for `O=C(Cn1cc(Nc2nc3c(N4CC5CCC(C4)N5C(=O)CCC(F)(F)F)cccn3n2)cn1)N1CCN(C2CCOCC2)CC1` [Example 10, 4,4,4-trifluoro-1-[3-[2-[[1-[2-oxo-2-(4-tetrahydropyran-4-ylpiperazin-1-yl)ethyl]pyrazol-4-yl]amino]-[1,2,4]triazolo[1,5-a]pyridin-8-yl]-3,8-diazabicyclo[3.2.1]octan-8-yl]butan-1-one] is 66.6 nM; for `CN(C1CCN(C(=O)Cn2cc(Nc3nc4c(N5CC6CCC(C5)N6C(=O)CCC(F)(F)F)cccn4n3)cn2)CC1)C1COC1` [Example 11, 4,4,4-trifluoro-1-[3-[2-[[1-[2-[4-[methyl(oxetan-3-yl)amino]-1-piperidyl]-2-oxo-ethyl]pyrazol-4-yl]amino]-[1,2,4]triazolo[1,5-a]pyridin-8-yl]-3,8-diazabicyclo[3.2.1]octan-8-yl]butan-1-one] it is 126 nM.
In turn, `CN1CCN(C(=O)Cn2cc(Nc3nc4c(N5CC6CCC(C5)N6C(=O)CC(F)(F)F)cccn4n3)cn2)CC1` [Example 12, 3,3,3-trifluoro-1-[3-[2-[[1-[2-(4-methylpiperazin-1-yl)-2-oxo-ethyl]pyrazol-4-yl]amino]-[1,2,4]triazolo[1,5-a]pyridin-8-yl]-3,8-diazabicyclo[3.2.1]octan-8-yl]propan-1-one] returned an IC50 of 36.6 nM.
The figure for `CN1CCN(C(=O)Cn2cc(Nc3nc4c(C5=CC6CCC(C5)N6C(=O)CCC(F)(F)F)cccn4n3)cn2)CC1` (stereo not drawn) [Example 13, 4,4,4-trifluoro-1-[3-[2-[[1-[2-(4-methylpiperazin-1-yl)-2-oxo-ethyl]pyrazol-4-yl]amino]-[1,2,4]triazolo[1,5-a]pyridin-8-yl]-8-azabicyclo[3.2.1]oct-3-en-8-yl]butan-1-one] is 21.4 nM.
As for `CN1CCN(C(=O)Cn2cc(Nc3nc4c(N5CC6CCC(C5)N6C(=O)C5CC5C(F)(F)F)cccn4n3)cn2)CC1` (stereo not drawn) [Example 14, 1-(4-methylpiperazin-1-yl)-2-[4-[[8-[8-[2-(trifluoromethyl)cyclopropanecarbonyl]-3,8-diazabicyclo[3.2.1]octan-3-yl]-[1,2,4]triazolo[1,5-a]pyridin-2-yl]amino]pyrazol-1-yl]ethanone], the IC50 is 27.9 nM.
Compound `CN1CCN(C(=O)Cn2cc(Nc3nc4c(N5CC6CCC(C5)N6C(=O)CC5CC5(F)F)cccn4n3)cn2)CC1` (stereo not drawn) [Example 16, 2-(2,2-difluorocyclopropyl)-1-[3-[2-[[1-[2-(4-methylpiperazin-1-yl)-2-oxo-ethyl]pyrazol-4-yl]amino]-[1,2,4]triazolo[1,5-a]pyridin-8-yl]-3,8-diazabicyclo[3.2.1]octan-8-yl]ethanone] showed an IC50 of 83.3 nM.
With `CSCCCC(=O)N1C2CCC1CN(c1cccn3nc(Nc4cnn(CC(=O)N5CCN(C)CC5)c4)nc13)C2` [Example 17, 1-[3-[2-[[1-[2-(4-methylpiperazin-1-yl)-2-oxo-ethyl]pyrazol-4-yl]amino]-[1,2,4]triazolo[1,5-a]pyridin-8-yl]-3,8-diazabicyclo[3.2.1]octan-8-yl]-4-methylsulfanyl-butan-1-one] the figure was 24.9 nM.
Consider `CN1CCN(C(=O)Cn2cc(Nc3nc4c(C5=CC6CCC(C5)N6C(=O)CCC(F)(F)F)cccn4n3)cn2)CC1` (stereo not drawn) [Example 18, 4,4,4-trifluoro-1-[3-[2-[[1-[2-(4-methylpiperazin-1-yl)-2-oxo-ethyl]pyrazol-4-yl]amino]-[1,2,4]triazolo[1,5-a]pyridin-8-yl]-8-azabicyclo[3.2.1]oct-3-en-8-yl]butan-1-one], for which inhibition was half-maximal at 278 nM (IC50). Compared with the last compound, the IC50 is about 11-fold higher.
Regarding `CN1CCN(C(=O)Cn2cc(Nc3nc4c(N5CC6CCC(C5)N6C(=O)c5ccc(CC#N)cc5)cccn4n3)cn2)CC1` [Example 19, 2-[4-[3-[2-[[1-[2-(4-methylpiperazin-1-yl)-2-oxo-ethyl]pyrazol-4-yl]amino]-[1,2,4]triazolo[1,5-a]pyridin-8-yl]-3,8-diazabicyclo[3.2.1]octane-8-carbonyl]phenyl] acetonitrile], the IC50 turned out to be 38.4 nM. Compared with the last compound, the IC50 is about 7.2-fold lower.
The figure for `CN1CCN(C(=O)Cn2cc(Nc3nc4c(C5=CC6CCC(C5)N6C(=O)[C@H]5C[C@@H](C(F)(F)F)C5)cccn4n3)cn2)CC1` (stereo partly drawn) [Example 20, 1-(4-methylpiperazin-1-yl)-2-[4-[[8-[8-[3-(trifluoromethyl)cyclobutanecarbonyl]-8-azabicyclo[3.2.1]oct-3-en-3-yl]-[1,2,4]triazolo[1,5-a]pyridin-2-yl]amino]pyrazol-1-yl]ethanone] is 33.2 nM; for `CN1CCN(C(=O)Cn2cc(Nc3nc4c(N5CC6CCC(C5)N6CC5(C#N)CC5)cccn4n3)cn2)CC1` [Example 21, 1-[[3-[2-[[1-[2-(4-methylpiperazin-1-yl)-2-oxo-ethyl]pyrazol-4-yl]amino]-[1,2,4]triazolo[1,5-a]pyridin-8-yl]-3,8-diazabicyclo[3.2.1]octan-8-yl]methyl] cyclopropanecarbonitrile] it is 52.3 nM.
The compound `CN1CCN(C(=O)Cn2cc(Nc3nc4c(N5CC6CCC(C5)N6Cc5ccc(Cl)cc5)cccn4n3)cn2)CC1` [Example 22, 2-[4-[[8-[8-[(4-chlorophenyl)methyl]-3,8-diazabicyclo[3.2.1]octan-3-yl]-[1,2,4]triazolo[1,5-a]pyridin-2-yl]amino]pyrazol-1-yl]-1-(4-methylpiperazin-1-yl)ethanone; formic acid] yielded an IC50 of 199 nM.
With `CN1CCN(C(=O)Cn2cc(Nc3nc4c(N5CC6CCC(C5)N6C(=O)C5(C#N)CC5)cccn4n3)cn2)CC1` [Example 23, 1-[3-[2-[[1-[2-(4-methylpiperazin-1-yl)-2-oxo-ethyl]pyrazol-4-yl]amino]-[1,2,4]triazolo[1,5-a]pyridin-8-yl]-3,8-diazabicyclo[3.2.1]octane-8-carbonyl] cyclopropanecarbonitrile] the figure was 40.1 nM.
The figure for `CN1CCN(C(=O)Cn2cc(Nc3nc4c(C5=CC6CCC(C5)N6C(=O)[C@H]5C[C@H](C(F)(F)F)C5)cccn4n3)cn2)CC1` (stereo partly drawn) [Example 24, 1-(4-methylpiperazin-1-yl)-2-[4-[[8-[8-[3-(trifluoromethyl)cyclobutanecarbonyl]-8-azabicyclo[3.2.1]oct-3-en-3-yl]-[1,2,4]triazolo[1,5-a]pyridin-2-yl]amino]pyrazol-1-yl]ethanone] is 323 nM.
The figure for `CN1CCN(C(=O)Cn2cc(Nc3nc4c(N5CC6CCC5CN6C(=O)CCC(F)(F)F)cccn4n3)cn2)CC1` (stereo not drawn) [Example 25, 4,4,4-trifluoro-1-[5-[2-[[1-[2-(4-methylpiperazin-1-yl)-2-oxo-ethyl]pyrazol-4-yl]amino]-[1,2,4]triazolo[1,5-a]pyridin-8-yl]-2,5-diazabicyclo[2.2.2]octan-2-yl]butan-1-one] is 36.4 nM; for `CN1CCN(C(=O)Cn2cc(Nc3nc4c(C5=CC6CCC(C5)N6C(=O)CCC(F)(F)F)cccn4n3)cn2)CC1` (stereo not drawn) [Example 26, 4,4,4-trifluoro-1-[3-[2-[[1-[2-(4-methylpiperazin-1-yl)-2-oxo-ethyl]pyrazol-4-yl]amino]-[1,2,4]triazolo[1,5-a]pyridin-8-yl]-8-azabicyclo[3.2.1]oct-3-en-8-yl]butan-1-one] it is 112 nM.
Regarding `CN1CCN(C(=O)Cn2cc(Nc3nc4c(N5CC6CCC(C5)N6C(=O)C5CC5(F)F)cccn4n3)cn2)CC1` (stereo not drawn) [Example 37, 2-[4-[[8-[8-(2,2-difluorocyclopropanecarbonyl)-3,8-diazabicyclo[3.2.1]octan-3-yl]-[1,2,4]triazolo[1,5-a]pyridin-2-yl]amino]pyrazol-1-yl]-1-(4-methylpiperazin-1-yl)ethanone], the IC50 turned out to be 72.6 nM.

Source of the values: patent publication US10189836B2, “Therapeutic compounds, compositions and methods of use thereof” (Genentech, Inc., priority 2015, dated 2019).
